Reference: paper PMC12926040, “ADP-ribose is a competitive inhibitor of methanol dehydrogenases from Bacillus methanolicus” (The Journal of Biological Chemistry, 2025)

The chains behind the UniProt entries cited, without tags or fusion partners.
UniProt I3E949, entry or part of it: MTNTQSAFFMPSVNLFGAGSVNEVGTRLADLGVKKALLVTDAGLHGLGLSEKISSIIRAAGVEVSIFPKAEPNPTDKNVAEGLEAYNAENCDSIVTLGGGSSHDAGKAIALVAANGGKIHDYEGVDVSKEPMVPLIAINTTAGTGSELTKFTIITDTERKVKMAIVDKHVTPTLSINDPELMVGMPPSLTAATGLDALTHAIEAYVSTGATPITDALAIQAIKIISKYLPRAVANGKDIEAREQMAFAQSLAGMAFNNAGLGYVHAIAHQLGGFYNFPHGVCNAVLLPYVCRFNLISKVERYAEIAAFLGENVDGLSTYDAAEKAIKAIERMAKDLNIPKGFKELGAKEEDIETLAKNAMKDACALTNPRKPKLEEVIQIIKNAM

Experiments:
BmMDH2S101G = assay type: biochemical, Bacillus methanolicus MGA3
Description: (§1) Data are shown as means ± SDs (n = 3). Apparent KM values for NAD^+ were determined in the presence of 10 nM ACT (Fig. S6). […] Data are presented as means ± SDs (n = 3). […] The row labels are given as the substance labels. / Panel D: no substance label is printed with the KD and thermodynamic values.

BmMDH1 = target: T1, BmMDH1 (Bacillus methanolicus, UniProt Q6TV41); test: Inhibition assay of MDHs by ADPR (residual activity, ethanol as substrate); assay type: biochemical, Bacillus methanolicus MGA3; settings: 3 mM NAD+, 40 mM ethanol, Tris-HCl pH 8.0, 25 °C
T1 sequence (Q6TV41 1-382): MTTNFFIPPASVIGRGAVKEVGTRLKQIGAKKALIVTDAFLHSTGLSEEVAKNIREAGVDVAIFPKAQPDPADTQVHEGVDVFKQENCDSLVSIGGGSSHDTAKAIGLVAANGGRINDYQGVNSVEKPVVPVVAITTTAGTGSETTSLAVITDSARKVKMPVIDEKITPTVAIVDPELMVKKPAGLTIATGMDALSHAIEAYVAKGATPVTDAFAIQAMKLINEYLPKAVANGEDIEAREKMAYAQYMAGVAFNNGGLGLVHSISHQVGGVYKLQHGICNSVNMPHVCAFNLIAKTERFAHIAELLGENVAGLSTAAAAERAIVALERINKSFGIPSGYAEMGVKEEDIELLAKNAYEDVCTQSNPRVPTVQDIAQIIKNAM
Description: (§2) Figure 4 Characterization of ADPR inhibition of and binding affinity for MDHs.A, inhibition of MDHs by ADPR in the presence of 3 mM NAD^+. Data are shown as means ± SDs (n = 3). Apparent KM values for NAD^+ were determined in the presence of 10 nM ACT (Fig. S6). B-C, inhibition kinetics of ADPR on ethanol dehydrogenation (B) and formaldehyde reduction (C) catalyzed by BmMDH2. Data are presented as means ± SDs (n = 3). D, binding affinity of ADPR to BmMDH2 determined by isothermal titration calorimetry (ITC). […] The only compounds the table names are ADPR and NAD+, in the column heads. The row labels are given as the substance labels. / Panel D: no substance label is printed with the KD and thermodynamic values.
(§3) Inhibition constants (Ki) were determined by measuring the residual activities of MDHs in the presence of different dilutions of ADPR (2-fold dilutions, ranging from 0 μM to 2000 μM final concentration) using ethanol as substrate. […] The rate of absorbance change is proportional to enzyme activity. The IC50 values were determined by fitting sigmoidal curves to the data using the following four-parameter logistic equation: Y=100/1+10^(LogIC50−X)p Wherein Y is the residual activity (%) of MDHs, X is the logarithm of ADPR concentration, IC50 is the concentration of inhibitor that produces 50% inhibition, and p is the Hill coefficient. The Ki values were calculated based on the IC50s using the Cheng-Prusoff equation: Ki=IC50/1+S0/KM Wherein [S]0 is the initial concentration of NAD^+ used for inhibition assay, and KM is the Michaelis-Menten constant of the MDHs for NAD^+ determined as described below.

BmMDH2 [1] = target: T2, BmMDH2 (Bacillus methanolicus, UniProt I3E949); test: as above; assay type: biochemical, Bacillus methanolicus MGA3
Description: as §2, §3

CnMDH2 CT4-1 = assay type: biochemical, Cupriavidus necator N-1
Description: as §1

BmMDH2 [2] = target: T2, BmMDH2; test: Inhibition kinetics of ADPR on formaldehyde reduction (NADH fluorescence); assay type: biochemical, Bacillus methanolicus MGA3; settings: read-out: Ki derived from inhibition kinetics, NADH varied
Description: as §1

BmMDH2 [3] = target: T2, BmMDH2; test: Isothermal titration calorimetry (ITC) of ADPR binding; design: species or system Bacillus methanolicus MGA3; settings: 25 °C, Tris-HCl pH 8.0, 0.5 mM MnCl2
Description: The ITC assay was performed on a Malvern Microcal PEAQ-ITC instrument (Malvern Panalytical), at 25 °C with stirring of 750 rpm. The sample cell was filled with 200 μl of protein solution (30 μM purified BmMDH2 in 200 mM Tris-HCl, pH 8.0, 0.5 mM MnCl2). The 300 μM ADPR solution containing 200 mM Tris-HCl (pH 8.0) and 0.5 mM MnCl2 was titrated at a rate of 0.5 μl/s at 150 s time intervals (first injection of 0.4 μl followed by 19 injections of 2 μl). The titration data were analyzed using MicroCal PEAQ-ITC analysis software (version 1.41, provided by the supplier) and fitted with the one-site model. […] Subsequently, the buffer was exchanged to Tris-HCl (200 mM, pH 8.0) using the Amicon Ultra-15 spin filter, and the binding of ADPR to BmMDH2 free of metal ion was analyzed using ITC as described above.
Fig. S10 ITC analysis of ADPR binding to BmMDH2 (a, b) and EDTA-treated BmMDH2 (c). a and b, ITC measurements were performed at 25°C using 200 μL of 30 µM BmMDH2 in 200 mM Tris-HCl (pH 8.0) containing 0.5 mM MnCl2. […] Data were analyzed using MicroCal PEAQ-ITC analysis software and fitted with the one-site model. c, BmMDH2 was treated with 20 mM EDTA in 100 mM glycine-NaOH buffer (pH 9.5) for 2 hours. Subsequently, the buffer was exchanged to 200 mM Tris-HCl (pH 8.0), and the binding of ADPR to metal-free BmMDH2 was analyzed as described in (a) and (b).

Substance: adenosine diphosphate ribose [ADPR]
- IC50 of BmMDH2S101G relative to BmMDH2 (BmMDH2S101G): over two orders of magnitude greater
- IC50 (BmMDH1): 4800 ± 1000 nM
- IC50 (BmMDH2 [1]; 3 mM NAD+, 40 mM ethanol, Tris-HCl pH 8.0, 25 °C): 2400 ± 700 nM
- Ki (BmMDH2 [1]; calculated from IC50 by Cheng-Prusoff equation): 460 ± 150 nM
- IC50 of CnMDH2 CT4-1 relative to BmMDH2 (CnMDH2 CT4-1): more than fivefold higher
- Ki of ADPR for CnMDH2 CT4-1 relative to BmMDH2 (CnMDH2 CT4-1): 4.8 fold
- Ki (BmMDH2 [2]): 92 nM
- Kd (BmMDH2 [3]): 303 nM
